According to patent US20100152622A1, “MOTOR PHENOMENON MEASUREMENT” (priority 2007, published 2010):

Experiments:
schizophrenia patients [1] = conditions: handwriting dysfluency; for average normalized jerk (ANJ) score compared between medication groups: marker of TD/EPS, 9 handwriting tasks, dominant hand, 1, 2, 4 cm, versus other medications; for average normalized jerk (ANJ) score compared with healthy subjects: medication group versus normal healthy subjects
schizophrenia patients [2] = conditions: in vivo

Compound | average normalized jerk (ANJ) score compared between medication groups (schizophrenia patients [1]) | average normalized jerk (ANJ) score compared with healthy subjects (schizophrenia patients [1]) | correlation (r) of average normalized jerk (ANJ) with daily dose (schizophrenia patients [2])
Cc1cc2c(s1)Nc1ccccc1N=C2N1CCN(C)CC1 [olanzapine] | significantly less abnormality than those treated with aripiprazole or risperidone | did not differ from normal healthy subjects | –
Cc1nc2n(c(=O)c1CCN1CCC(c3noc4cc(F)ccc34)CC1)CCCC2 [risperidone] | significant group effect for risperidone versus quetiapine | significantly higher ANJ scores than healthy subjects | 0.78
